Measurements as given in ChEMBL document CHEMBL1137856, “The pharmacophore hypotheses of I(Kr) potassium channel blockers: novel class III antiarrhythmic agents” (Bioorg Med Chem Lett, 2004).

Protein sequences, listed by entry. Tags and fused reporters are not part of them. Lines headed by an entry give the natural chain unless they say otherwise; changes in a name come on top.
UniProt Q12809: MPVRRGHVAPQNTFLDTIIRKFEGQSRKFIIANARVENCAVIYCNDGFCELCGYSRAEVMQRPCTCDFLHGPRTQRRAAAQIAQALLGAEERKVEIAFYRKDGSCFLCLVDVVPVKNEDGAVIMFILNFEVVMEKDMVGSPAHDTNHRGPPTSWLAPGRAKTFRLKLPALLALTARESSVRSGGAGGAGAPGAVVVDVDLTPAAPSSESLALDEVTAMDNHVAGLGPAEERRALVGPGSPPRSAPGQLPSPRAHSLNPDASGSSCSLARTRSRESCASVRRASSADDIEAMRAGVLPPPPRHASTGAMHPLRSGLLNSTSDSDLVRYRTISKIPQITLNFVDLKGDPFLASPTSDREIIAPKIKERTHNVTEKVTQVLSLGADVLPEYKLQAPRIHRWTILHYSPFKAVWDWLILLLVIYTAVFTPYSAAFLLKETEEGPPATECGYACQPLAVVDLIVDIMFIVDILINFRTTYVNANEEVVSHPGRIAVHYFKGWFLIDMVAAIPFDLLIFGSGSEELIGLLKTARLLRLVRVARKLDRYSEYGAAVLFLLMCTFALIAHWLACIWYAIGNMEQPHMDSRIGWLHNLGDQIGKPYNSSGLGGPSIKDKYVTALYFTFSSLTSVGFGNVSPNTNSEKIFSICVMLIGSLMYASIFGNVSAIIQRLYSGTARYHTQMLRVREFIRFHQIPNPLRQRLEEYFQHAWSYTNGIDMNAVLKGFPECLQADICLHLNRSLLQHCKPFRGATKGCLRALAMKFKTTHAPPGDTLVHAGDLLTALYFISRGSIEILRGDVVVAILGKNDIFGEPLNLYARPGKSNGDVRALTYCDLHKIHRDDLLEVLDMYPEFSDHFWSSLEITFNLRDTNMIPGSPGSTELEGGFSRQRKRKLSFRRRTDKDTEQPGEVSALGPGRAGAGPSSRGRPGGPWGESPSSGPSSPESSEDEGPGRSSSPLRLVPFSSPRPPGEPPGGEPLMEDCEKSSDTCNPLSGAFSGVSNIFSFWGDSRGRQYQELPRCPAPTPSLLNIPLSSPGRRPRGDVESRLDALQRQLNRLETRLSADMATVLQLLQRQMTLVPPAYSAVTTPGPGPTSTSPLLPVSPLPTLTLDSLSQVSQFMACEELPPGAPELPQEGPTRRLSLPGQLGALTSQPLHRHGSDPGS

Target: Voltage-gated inwardly rectifying potassium channel KCNH2 (Homo sapiens, UniProt Q12809)

Structure (SMILES): O=C1NC(=O)C(c2ccccc2)(c2ccccc2)N1 [PHENYTOIN]
- IC50: 240 µM
